Results as given in patent publication US6586596B2, “Acetylcholine enhancers” (priority 1998, dated 2003).

Amino acid sequences for entries named in this document (tags omitted). Residues count along the entry.
UniProt P23979, 24-489 limits assumed: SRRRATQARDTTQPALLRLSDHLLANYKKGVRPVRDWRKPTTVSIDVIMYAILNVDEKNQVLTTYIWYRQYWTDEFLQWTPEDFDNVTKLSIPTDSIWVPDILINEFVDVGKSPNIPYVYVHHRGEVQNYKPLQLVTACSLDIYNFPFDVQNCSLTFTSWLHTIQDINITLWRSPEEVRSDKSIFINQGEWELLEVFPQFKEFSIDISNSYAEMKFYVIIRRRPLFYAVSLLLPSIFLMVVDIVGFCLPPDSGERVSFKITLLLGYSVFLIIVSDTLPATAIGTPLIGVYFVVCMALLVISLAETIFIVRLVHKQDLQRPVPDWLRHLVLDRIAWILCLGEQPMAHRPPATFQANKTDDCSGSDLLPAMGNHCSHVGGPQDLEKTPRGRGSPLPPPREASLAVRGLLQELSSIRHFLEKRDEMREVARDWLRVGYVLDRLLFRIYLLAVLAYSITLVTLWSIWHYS
UniProt P22303, 32-614 limits assumed: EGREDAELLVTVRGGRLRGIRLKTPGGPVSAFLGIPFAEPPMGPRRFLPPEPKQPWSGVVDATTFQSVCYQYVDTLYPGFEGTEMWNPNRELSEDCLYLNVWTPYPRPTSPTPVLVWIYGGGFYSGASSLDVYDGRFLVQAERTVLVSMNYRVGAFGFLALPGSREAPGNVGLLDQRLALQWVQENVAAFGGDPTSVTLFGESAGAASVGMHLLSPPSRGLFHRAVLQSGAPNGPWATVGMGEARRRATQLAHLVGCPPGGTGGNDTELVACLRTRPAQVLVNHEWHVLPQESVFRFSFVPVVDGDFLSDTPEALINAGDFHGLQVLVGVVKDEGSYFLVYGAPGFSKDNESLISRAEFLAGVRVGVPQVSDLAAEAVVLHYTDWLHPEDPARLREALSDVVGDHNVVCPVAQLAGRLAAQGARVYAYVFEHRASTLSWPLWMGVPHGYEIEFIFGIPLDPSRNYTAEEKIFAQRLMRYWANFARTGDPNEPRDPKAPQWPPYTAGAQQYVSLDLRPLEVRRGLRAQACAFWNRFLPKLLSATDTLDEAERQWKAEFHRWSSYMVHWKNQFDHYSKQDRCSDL

Columns and labels:
[1] = molecular target: 5-HT3 receptor (Mus musculus, UniProt P23979); test: serotonin 5-HT3 binding assay (NovaScreen), NIE-115 cells; conditions: 20 mM HEPES pH 7.4, 150 mM NaCl, 25° C., 60 minutes
[2] = molecular target: AChE (Homo sapiens, UniProt P22303)

| SMILES | IC50 [1] [nM] | Ki [1] [nM] | IC50 [2] [nM] |
| --- | --- | --- | --- |
| Nc1c2c(nc3ccccc13)CN(CCC1CCN(Cc3ccccc3)CC1)C2=O | 292 | 134 |  |
| CCCOc1c2c(nc3ccccc13)CN(CCC1CCN(Cc3ccccc3)CC1)C2=O | 288 | 132 |  |
| N#CCCCCOc1c2c(nc3ccccc13)CN(CCC1CCN(Cc3ccccc3)CC1)C2=O | 216 | 99.4 |  |
| COc1c2c(nc3cccc(SC)c13)CN(CCC1CCN(Cc3ccccc3)CC1)C2=O |  | 50.1 | 210 |
| O=C1c2c(nc3ccccc3c2NCCC2CCN(Cc3ccccc3)CC2)CN1CCC1CCN(Cc2ccccc2)CC1 | 469 | 215 | 83 |
| CC(C)Oc1c2c(nc3ccccc13)CN(CCC1CCN(Cc3ccccc3)CC1)C2=O | 390 | 179 |  |
